Data on one substance can be found in publication PMC4850247.

Protein sequences, listed by entry. Tags and fused reporters are not part of them. Lines headed by an entry give the natural chain unless they say otherwise; changes in a name come on top. Residues count along the entry.
UniProt Q5VVQ6: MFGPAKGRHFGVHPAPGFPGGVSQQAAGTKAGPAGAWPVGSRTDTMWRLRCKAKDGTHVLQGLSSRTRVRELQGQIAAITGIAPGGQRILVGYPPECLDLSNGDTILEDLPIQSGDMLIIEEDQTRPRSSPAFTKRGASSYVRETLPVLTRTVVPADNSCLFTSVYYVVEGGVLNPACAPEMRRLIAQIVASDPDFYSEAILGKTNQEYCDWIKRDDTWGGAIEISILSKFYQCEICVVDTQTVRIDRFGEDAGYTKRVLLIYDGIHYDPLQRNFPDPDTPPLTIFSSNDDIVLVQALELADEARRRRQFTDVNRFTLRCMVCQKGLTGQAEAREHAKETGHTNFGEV
UniProt Q5T2D3, 52-209: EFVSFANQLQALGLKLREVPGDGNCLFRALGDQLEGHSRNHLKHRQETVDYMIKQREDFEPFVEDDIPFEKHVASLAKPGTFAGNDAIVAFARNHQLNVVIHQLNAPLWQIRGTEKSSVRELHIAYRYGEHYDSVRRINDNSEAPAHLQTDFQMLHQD

Test [1] deals with Full-length human OTUD2 (human) (UniProt Q5VVQ6).
For test [2], the target named is OTUD3 (aa 52-209) (human) (UniProt Q5T2D3).

Some results are limits rather than exact numbers.

Turning to “Ub-7-amido-4-methylcoumarin (mUb-AMC) (from UniProt P0CG48 1-76)”, the KM of AMC release from mUb-AMC (Michaelis-Menten, 15 nM OTUD2, substrate up to 20 μM) in test [1] was more than 100 µM. Moreover, in test [2], the KM of AMC release from mUb-AMC (Michaelis-Menten, 15 nM OTUD3) was 3.1 µM.
